The source of these data is PubChem BioAssay AID847 (SRMLSC, 2007).

Only a part is listed here, and it is no random draw. Active and inactive are the calls of the source.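 Rule for the calls: active = viability at or below the median of all test compounds minus 3 SD, in both replicates if run twice (cut at about 45% in these data); inconclusive = duplicate replicates that disagree with each other; inactive = viability above that cutoff in every replicate.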

A short description of this experiment: viability loss of SK-BR-3 cells – cell-based, human, 24 h, primary screen (AID 847).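 Note: 100% = median untreated cell wells and 0% = median positive control drug.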 The following applies: SK-BR-3 viability, CellTiter-Glo ATP luminescence, at 10 µM, stronger effect = lower value.
Turning to `Cc1nc2ccc3ccccc3c2s1.O=[N+]([O-])c1cc([N+](=O)[O-])c(O)c([N+](=O)[O-])c1`, the viability was inactive: 86.2%.
The result for `Cc1ccc(C)c(NP(C)(=O)Oc2ccccc2)c1` (centres undefined) reads inactive: 92.4%.
The same measure for `Cc1ccc(NP(C)(=O)Oc2ccccc2)c(C)c1` (centres undefined): inactive: 88.3%.
The result for `COc1ccccc1OP(C)(=O)Nc1ccc(C)cc1` (centres undefined) reads inactive: 61.1%; that for `CP(=S)(Nn1cnnc1)Oc1ccccc1` (centres undefined), inactive: 107%; that for `CP(=O)(NC(=O)Nc1ccccc1)Oc1ccccc1` (centres undefined), inactive: 88.7%.
With `CP(=O)(Oc1ccccc1)N1CCOC1=O` (centres undefined), the viability is inactive: 113%.
Turning to `COc1ccccc1OP(C)(=O)Nc1c(C)n(C)n(-c2ccccc2)c1=O` (centres undefined), the viability was inactive: 51.2%.
The result for `CCN(CC)CC(O)COC(=O)C(O)(c1ccccc1)C1CCCCC1` (centres undefined) reads inactive: 80.5%; that for `COc1ccccc1OP(C)(=O)Nc1ccc(C)c(C)c1` (centres undefined), inactive: 92.5%; that for `CN(C)CCOC(=O)C(O)(c1ccccc1)C1CCCCC1` (centres undefined), inactive: 102%.
The result for `CCOP(C)(=S)SCC(=O)NC(C)(CC)C(=O)O` (centres undefined) reads inactive: 105%.
The result for `Cc1ccccc1NP(C)(=O)Nc1ccccc1C` reads inactive: 88.3%.
For `CP(=O)(Nc1ccc2c(c1)OCCO2)Oc1ccccc1` (centres undefined), the viability was inactive: 57.4%.

As usually defined, the viability is a read-out of living cells in per cent, often relative to untreated cells.
